Experimental data reported in patent US9603820B2, “Ornithine aminotransferase inhibition with GABA analogues for treatment of hepatocellular carcinoma” (Northwestern University, priority 2014, dated 2017).

System: CYP3A4/5
Test: CYP induction in cultured human hepatocytes
Conditions: concentrations up to 100 μM, 3 days

How did the “induction of CYP3A4/5 activity” value turn out when `N[C@H]1C[C@@H](C(=O)O)CC1=C(F)F` [CPP-115, (1S,3S)-3-amino-4-difluoromethylenyl-1-cyclopentanoic acid] was run?
The value was “not an inducer”.
